Experimental findings from US20060188895A1, “Rapid prognostic assay for malignancies treated with epidermal growth factor receptor” (The Johns Hopkins University, priority 2004, published 2006) are described below.

This experiment relates to A431 cells (c-fos mRNA). Description: in vitro c-fos mRNA expression by quantitative RT-PCR. Type of experiment: cell-based, human.

`COc1cc2ncnc(Nc3ccc(F)c(Cl)c3)c2cc1OCCCN1CCOCC1` [gefitinib]: for the setting “10 μM, 1-hour exposure, with EGF”, the “effect on EGF-induced c-fos increment” value was “abrogated”. Moreover, the “c-fos, time and dose-dependency experiment” value (0.1 and 1 μM, 24, 48 and 120 hours) is reported as “decreased c-fos effectively”. The “c-fos after longer exposure” value (24-hour exposure) is given as “lasting c-fos downregulation”. Besides, the “effect of drug alone on c-fos levels” value (without EGF, 1 hour) is recorded as “decreased c-fos levels”.
